Sequences of proteins named here, by UniProt entry; tags and fusion partners are left off. Residues count along the entry.
UniProt P9WFK7, 2-402 limits assumed: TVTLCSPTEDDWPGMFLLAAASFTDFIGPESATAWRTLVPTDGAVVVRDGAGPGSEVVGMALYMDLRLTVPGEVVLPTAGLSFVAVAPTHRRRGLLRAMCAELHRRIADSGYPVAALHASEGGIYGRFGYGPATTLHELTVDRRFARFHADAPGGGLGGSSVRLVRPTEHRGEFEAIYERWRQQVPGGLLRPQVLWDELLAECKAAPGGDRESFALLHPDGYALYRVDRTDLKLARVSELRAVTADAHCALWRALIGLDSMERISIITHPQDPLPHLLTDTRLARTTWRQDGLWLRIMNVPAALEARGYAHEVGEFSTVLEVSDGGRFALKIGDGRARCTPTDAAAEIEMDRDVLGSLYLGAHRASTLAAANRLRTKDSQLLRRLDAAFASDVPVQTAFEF

In patent US10253035B2 (priority 2016, dated 2019):

Molecular target: Eis_Mtb (Mycobacterium tuberculosis, UniProt P9WFK7)
Assay: biochemical

Q: For `O=C(C[N+]1=C(c2ccc(F)c(F)c2)c2cccn2CC1)c1ccccc1` [Compound 3a], which IC50 is on record?
A: 150 ± 50 nM
